Target: ecdysteroid receptor complex in Plodia interpunctella (IAL-PID2) nuclear extract (Plodia interpunctella, UniProt Q6RVD3)
Test: Competitive 3H-ponasterone A binding assay, Plodia nuclear ecdysone receptor extract
Settings: 3H-ponasterone A displacement
Description: The cell line IAL-PID2, derived from imaginal wing discs of the lepidopteran Plodia interpunctella was obtained from H. Oberlander and maintained as described (Lynn, E. E. and Oberlander, H., (1983), J. Insect Physiology, 29, 591-96). A 300 ml stationary phase culture of P. interpunctella cells was centrifuged at 700×g for 10 mm at room temperature to pellet the cells. The supernatant was aspirated and the cellular pellet resuspended in 35 ml TMT (TM buffer with 0.1% Triton X-100). The suspension was homogenized with twenty up and down strokes of a Dounce homogenizer on ice. Homogenate was incubated on ice for 10 minutes and then centrifuged for 15 min at 900×g. The pellet was resuspenced in 15 ml TM buffer and centrifuged at 2,300×g. This pellet was extracted in TMK buffer (TM buffer with 800 mM KCl) by using a glass rod to crush the pellet until a gelatinous slurry was formed and incubated on ice for 15 minutes. The extract was centrifuged at 100,000×g in a swinging bucket rotor for 60 minutes. The supernatant, which constituted the nuclear extract, was desalted on a 10 DG desalting column (Bio-Rad, 732-2010) equilibrated with T-buffer. The total protein concentration in the nuclear extract was adjusted to 5 mg per ml with T-buffer containing 1 mM DTT. […]

Amino acid sequences for entries named in this document (tags omitted). Residues count along the entry.
UniProt Q6RVD3, 1-541: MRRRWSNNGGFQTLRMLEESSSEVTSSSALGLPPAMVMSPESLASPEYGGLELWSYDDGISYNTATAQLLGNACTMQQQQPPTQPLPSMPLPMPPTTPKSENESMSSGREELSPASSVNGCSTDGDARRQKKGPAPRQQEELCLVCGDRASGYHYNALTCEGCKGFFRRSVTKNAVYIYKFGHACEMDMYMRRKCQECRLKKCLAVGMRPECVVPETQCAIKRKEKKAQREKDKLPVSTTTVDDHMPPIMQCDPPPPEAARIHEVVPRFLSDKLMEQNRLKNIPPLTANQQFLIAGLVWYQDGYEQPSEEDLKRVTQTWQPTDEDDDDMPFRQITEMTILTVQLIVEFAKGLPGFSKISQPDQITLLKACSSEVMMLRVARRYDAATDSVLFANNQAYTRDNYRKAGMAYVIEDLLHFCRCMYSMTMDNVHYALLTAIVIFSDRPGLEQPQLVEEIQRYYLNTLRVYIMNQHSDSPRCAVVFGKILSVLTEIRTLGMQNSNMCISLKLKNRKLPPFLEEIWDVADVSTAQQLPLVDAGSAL
UniProt Q6IVK1, 1-415 partner: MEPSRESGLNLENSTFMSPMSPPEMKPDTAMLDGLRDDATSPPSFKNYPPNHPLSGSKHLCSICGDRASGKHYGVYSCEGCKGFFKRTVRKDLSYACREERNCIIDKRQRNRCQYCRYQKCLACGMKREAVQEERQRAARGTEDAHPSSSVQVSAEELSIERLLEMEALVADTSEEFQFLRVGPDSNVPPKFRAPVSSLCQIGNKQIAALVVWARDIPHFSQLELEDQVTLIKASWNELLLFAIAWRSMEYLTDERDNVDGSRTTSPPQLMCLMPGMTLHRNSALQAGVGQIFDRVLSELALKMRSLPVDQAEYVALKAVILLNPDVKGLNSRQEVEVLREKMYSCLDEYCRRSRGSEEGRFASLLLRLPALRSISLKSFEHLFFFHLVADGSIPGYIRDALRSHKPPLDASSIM

SMILES | Plodia log(1/IC50)
CCc1c(C(=O)NN(C(=O)c2cc(C)cc(C)c2)C(C)(C)C)ccc2c1CCO2 | 8.85
CCc1ccc(C(=O)NN(C(=O)c2cc(C)cc(C)c2)C(C)(C)C)c(F)c1 | 9.24
